ChEMBL document CHEMBL1154939, “Novel multiple opioid ligands based on 4-aminobenzazepinone (Aba), azepinoindole (Aia) and tetrahydroisoquinoline (Tic) scaffolds” (Bioorg Med Chem Lett, 2010)

Chains of the proteins cited; added tags and fusions are not shown.
UniProt P32300, whole entry: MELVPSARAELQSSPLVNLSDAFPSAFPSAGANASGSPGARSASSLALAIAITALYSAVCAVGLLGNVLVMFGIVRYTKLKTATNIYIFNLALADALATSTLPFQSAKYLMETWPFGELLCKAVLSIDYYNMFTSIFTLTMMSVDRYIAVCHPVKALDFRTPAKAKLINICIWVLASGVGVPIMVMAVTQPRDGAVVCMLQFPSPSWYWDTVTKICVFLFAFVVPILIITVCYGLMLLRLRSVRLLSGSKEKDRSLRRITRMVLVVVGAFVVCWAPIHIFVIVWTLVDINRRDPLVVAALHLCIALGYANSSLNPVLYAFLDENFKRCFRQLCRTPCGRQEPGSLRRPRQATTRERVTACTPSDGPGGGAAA
UniProt P33533, whole entry: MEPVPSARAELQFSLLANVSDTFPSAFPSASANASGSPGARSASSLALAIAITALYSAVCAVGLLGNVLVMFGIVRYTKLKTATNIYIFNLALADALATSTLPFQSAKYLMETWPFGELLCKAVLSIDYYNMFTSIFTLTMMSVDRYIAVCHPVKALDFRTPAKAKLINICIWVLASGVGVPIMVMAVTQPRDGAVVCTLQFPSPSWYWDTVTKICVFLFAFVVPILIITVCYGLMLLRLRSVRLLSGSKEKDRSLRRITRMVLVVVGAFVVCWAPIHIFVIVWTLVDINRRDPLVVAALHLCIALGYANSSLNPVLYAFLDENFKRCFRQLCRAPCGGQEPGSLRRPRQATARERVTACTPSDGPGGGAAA
UniProt P97266, whole entry: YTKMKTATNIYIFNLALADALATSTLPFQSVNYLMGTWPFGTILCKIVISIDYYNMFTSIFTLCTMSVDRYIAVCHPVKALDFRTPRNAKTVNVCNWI

Columns and labels:
Rattus norvegicus [1] = species: Rattus norvegicus; assay: Selectivity ratio of Ki for rat delta opioid receptor to Ki for rat mu opioid receptor
[2] = target: Delta-type opioid receptor (Mus musculus, UniProt P32300); assay: Antagonist activity at delta opioid receptor in mouse vas deferens; format: functional, tissue-based
Rattus norvegicus [3] = species: Rattus norvegicus; assay: Selectivity ratio of Ki for rat mu opioid receptor to Ki for rat delta opioid receptor
[4] = target: Delta-type opioid receptor (Rattus norvegicus, UniProt P33533); assay: Displacement of [3H]deltorphin 2 from delta opioid receptor in rat brain membranes; format: cell membranes
Method in brief: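 Equilibrium competition binding on P2 membrane preparation of rat brain; mu sites labelled with [3H]DAMGO, delta sites with [3H]deltorphin II. Five to eight graded peptide doses, duplicate wells; Ki via Cheng-Prusoff. Mean ± SEM from three to six independent assays using different synaptosomal preparations.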

Mu-type opioid receptor = Mu-type opioid receptor (Cavia porcellus, UniProt P97266); assay: Antagonist activity at mu opioid receptor in guinea pig ileum; format: functional, tissue-based

Q: `Cc1cc(O)cc(C)c1C[C@H](N)C(=O)N[C@H]1Cc2ccccc2CN(CC(=O)NCCNC(=O)CN2Cc3ccccc3C[C@H](NC(=O)[C@@H](N)Cc3c(C)cc(O)cc3C)C2=O)C1=O` was tested. Which Ratio Ki (Rattus norvegicus [1]) did it give?
A: The Ratio Ki was 9.5.

Q: And the IC50 [2]?
A: Its IC50 is > 10 µM.

Q: How did the Ratio Ki (Rattus norvegicus [3]) turn out when `Cc1cc(O)cc(C)c1C[C@H](N)C(=O)N1Cc2ccccc2C[C@H]1C(=O)NCCN(CCNC(=O)[C@@H]1Cc2ccccc2CN1C(=O)[C@@H](N)Cc1c(C)cc(O)cc1C)CCNC(=O)[C@@H]1Cc2ccccc2CN1C(=O)[C@@H](N)Cc1c(C)cc(O)cc1C` was run?
A: The Ratio Ki was 2.1.

Q: With `Cc1cc(O)cc(C)c1C[C@H](N)C(=O)N1Cc2ccccc2C[C@H]1C(=O)NCC/C=C/CCNC(=O)[C@@H]1Cc2ccccc2CN1C(=O)[C@@H](N)Cc1c(C)cc(O)cc1C` as the compound, how does the Ki [4] read?
A: The Ki was 0.00024 µM.

Q: And the IC50 (Mu-type opioid receptor)?
A: The IC50 was > 10 µM.

Q: What about the Ratio Ki (Rattus norvegicus [3]) of the same compound?
A: The Ratio Ki was 6.3.

Q: And the IC50 [2]?
A: The IC50 was > 10 µM.

Q: `Cc1cc(O)cc(C)c1C[C@H](N)C(=O)N1Cc2ccccc2C[C@H]1C(=O)O` was tested. Which Ratio Ki (Rattus norvegicus [3]) did it give?
A: The Ratio Ki was 150.
